One may read the Ki as a dissociation constant, usually derived from enzyme kinetics or from competition with a known ligand. Low readings indicate a stronger hold on the target, high ones a looser hold on the target.

Protein sequences, listed by entry. Tags and fused reporters are not part of them.
UniProt P33533, whole entry: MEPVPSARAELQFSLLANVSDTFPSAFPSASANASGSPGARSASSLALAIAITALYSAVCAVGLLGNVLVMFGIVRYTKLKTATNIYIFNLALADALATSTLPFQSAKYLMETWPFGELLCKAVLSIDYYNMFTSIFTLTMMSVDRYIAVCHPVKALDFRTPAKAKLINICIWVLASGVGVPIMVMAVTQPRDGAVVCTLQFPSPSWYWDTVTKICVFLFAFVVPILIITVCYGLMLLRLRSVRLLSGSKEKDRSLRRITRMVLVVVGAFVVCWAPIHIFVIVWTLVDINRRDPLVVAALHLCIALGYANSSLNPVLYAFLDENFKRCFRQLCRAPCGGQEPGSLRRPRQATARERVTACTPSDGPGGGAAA

The structures appear in SMILES notation.

This experiment concerns the target Delta-type opioid receptor (Rattus norvegicus, UniProt P33533). The experiment is described as follows: Displacement of [3H]DPDPE from delta opioid receptor in rat brain homogenate after 1 hr by liquid scintillation counting. Type of experiment: tissue-based. For orientation: Displacement assays read how much labelled ligand stays bound in the presence of the test substance.

`CN(CCOCCCc1ccccc1)CCc1ccccc1` returned a Ki of 8.53 µM. This lies in the single-digit micromolar range.

The values are drawn from ChEMBL document CHEMBL2046286, “Deconstructing 14-phenylpropyloxymetopon: minimal requirements for binding to mu opioid receptors” (Bioorg Med Chem, 2012).
